ChEMBL document CHEMBL1764947, “Symmetric double-headed aminopyridines, a novel strategy for potent and membrane-permeable inhibitors of neuronal nitric oxide synthase” (J Med Chem, 2011)

By UniProt entry, the sequences of proteins in these tests, tags left out.
UniProt P29475, whole entry: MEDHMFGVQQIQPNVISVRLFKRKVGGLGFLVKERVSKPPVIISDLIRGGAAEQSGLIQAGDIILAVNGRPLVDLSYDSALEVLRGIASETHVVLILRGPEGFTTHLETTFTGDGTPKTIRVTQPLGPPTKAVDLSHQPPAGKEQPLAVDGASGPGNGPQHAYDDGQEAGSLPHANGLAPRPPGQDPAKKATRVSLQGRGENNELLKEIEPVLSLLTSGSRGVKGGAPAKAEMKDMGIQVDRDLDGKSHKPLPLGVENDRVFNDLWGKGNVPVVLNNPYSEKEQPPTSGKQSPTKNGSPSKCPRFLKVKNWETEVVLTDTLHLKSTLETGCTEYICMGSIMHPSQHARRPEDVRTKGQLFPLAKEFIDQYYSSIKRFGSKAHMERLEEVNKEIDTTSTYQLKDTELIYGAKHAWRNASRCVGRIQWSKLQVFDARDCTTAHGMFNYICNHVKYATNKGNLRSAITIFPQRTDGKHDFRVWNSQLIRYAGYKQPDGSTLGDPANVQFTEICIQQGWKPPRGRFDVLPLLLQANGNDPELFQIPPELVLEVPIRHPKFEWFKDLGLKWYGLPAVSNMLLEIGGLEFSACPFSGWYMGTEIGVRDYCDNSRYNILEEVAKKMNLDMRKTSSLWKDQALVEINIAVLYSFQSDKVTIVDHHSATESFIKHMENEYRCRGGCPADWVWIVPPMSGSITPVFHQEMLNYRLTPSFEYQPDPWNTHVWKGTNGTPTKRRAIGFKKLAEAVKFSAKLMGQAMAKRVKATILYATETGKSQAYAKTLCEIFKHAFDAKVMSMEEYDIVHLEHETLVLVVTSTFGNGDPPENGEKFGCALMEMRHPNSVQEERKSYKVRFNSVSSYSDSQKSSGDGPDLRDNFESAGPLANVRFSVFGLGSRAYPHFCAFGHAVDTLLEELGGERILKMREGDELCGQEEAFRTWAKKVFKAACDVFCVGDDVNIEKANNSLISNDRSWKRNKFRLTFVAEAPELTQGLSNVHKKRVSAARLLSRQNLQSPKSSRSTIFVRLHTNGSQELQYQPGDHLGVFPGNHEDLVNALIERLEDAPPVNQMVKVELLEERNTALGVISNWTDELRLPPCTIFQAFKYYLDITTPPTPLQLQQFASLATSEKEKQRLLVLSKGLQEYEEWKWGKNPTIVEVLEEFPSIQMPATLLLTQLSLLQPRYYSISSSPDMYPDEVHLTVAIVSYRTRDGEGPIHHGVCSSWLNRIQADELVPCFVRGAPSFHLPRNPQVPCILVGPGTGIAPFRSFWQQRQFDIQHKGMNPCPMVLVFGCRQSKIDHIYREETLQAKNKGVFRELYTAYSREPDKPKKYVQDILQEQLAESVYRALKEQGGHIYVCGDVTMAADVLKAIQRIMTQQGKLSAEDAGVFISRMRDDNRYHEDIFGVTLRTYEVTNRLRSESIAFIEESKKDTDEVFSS

Experiments:
Nitric oxide synthase 1 = Nitric oxide synthase 1 (Homo sapiens, UniProt P29475); assay: Inhibition of nNOS expressed in human 293T cells assessed as nitrite formation after 8 hrs by Griess reaction; format: cell-based
[1] = Selectivity ratio of Ki for bovine recombinant eNOS to Ki for rat recombinant nNOS
[2] = Selectivity ratio of Ki for murine macrophage recombinant iNOS to Ki for rat recombinant nNOS

Compound | IC50 (Nitric oxide synthase 1) [µM] | Ratio Ki [1] | Ratio Ki [2]
Cc1cc(N)nc(CCc2cncc(CCc3cc(C)cc(N)n3)c2)c1 | 5 |  | 
Cc1cc(N)nc(CCc2cccc(CCc3cc(C)cc(N)n3)c2)c1 |  | 28.8 | 13.9
Cc1cc(N)nc(CCc2cccc(CCc3cc(C)nc(N)c3)n2)c1 |  | 102 | 64
